Data: paper PMC11188874, “HDAC6 Inhibition Releases HR23B to Activate Proteasomes, Expand the Tumor Immunopeptidome and Amplify T-cell Antimyeloma Activity” (Cancer Research Communications, 2024)

Protein sequences, listed by entry. Tags and fused reporters are not part of them. Lines headed by an entry give the natural chain unless they say otherwise; changes in a name come on top.
UniProt P56524: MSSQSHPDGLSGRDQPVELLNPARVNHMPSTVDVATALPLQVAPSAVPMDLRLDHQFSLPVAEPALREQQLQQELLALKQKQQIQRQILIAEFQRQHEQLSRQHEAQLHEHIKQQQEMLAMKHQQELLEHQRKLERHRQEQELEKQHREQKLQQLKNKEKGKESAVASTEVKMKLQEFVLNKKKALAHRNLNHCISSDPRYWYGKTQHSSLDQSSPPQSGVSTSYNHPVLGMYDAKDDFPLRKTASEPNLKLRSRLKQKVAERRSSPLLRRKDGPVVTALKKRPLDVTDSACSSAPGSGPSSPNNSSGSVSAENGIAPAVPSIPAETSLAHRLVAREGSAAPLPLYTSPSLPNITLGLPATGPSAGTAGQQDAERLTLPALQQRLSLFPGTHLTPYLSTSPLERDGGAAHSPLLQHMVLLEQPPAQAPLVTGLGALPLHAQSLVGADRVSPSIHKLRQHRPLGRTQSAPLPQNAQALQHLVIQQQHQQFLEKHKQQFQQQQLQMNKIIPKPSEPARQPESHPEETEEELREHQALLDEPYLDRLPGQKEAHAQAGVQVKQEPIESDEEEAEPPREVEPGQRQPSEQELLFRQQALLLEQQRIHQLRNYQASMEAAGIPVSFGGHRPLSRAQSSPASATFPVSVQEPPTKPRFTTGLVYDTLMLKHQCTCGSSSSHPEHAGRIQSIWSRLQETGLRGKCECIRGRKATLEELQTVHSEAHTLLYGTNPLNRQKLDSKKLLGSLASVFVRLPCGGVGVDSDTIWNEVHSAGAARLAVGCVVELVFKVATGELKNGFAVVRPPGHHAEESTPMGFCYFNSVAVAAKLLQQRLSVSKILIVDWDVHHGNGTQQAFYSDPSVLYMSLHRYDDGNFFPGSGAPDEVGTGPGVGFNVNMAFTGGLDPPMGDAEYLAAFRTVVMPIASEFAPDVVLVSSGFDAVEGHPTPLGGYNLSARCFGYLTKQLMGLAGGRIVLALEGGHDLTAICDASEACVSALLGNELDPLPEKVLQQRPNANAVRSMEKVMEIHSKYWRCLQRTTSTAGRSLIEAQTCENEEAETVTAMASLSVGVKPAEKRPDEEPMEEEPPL

Target: T1, HDAC4 (Homo sapiens, UniProt P56524)
T1 construct: purchased Reaction Biology (Malvern, PA)
Test: In vitro biochemical activity assay, HDAC4

With CN1CCc2c(c3ccccc3n2Cc2ccc(C(=O)NO)cc2)C1 [Tubastatin-A] the IC50 was greater than 1 µM.
